{"source": "paper PMC2045123", "about": "(Analytical and Bioanalytical Chemistry, 2007)", "origin": "cited, not measured here", "tested_on": "androgen receptor", "details": "without metabolic activation; cited from earlier work"}
{"compound": "C[C@]12CC[C@H](O)CC1=CC[C@@H]1[C@@H]2CC[C@]2(C)C(=O)CC[C@@H]12", "note": "[dehydroepiandrosterone]", "values": [{"measurement": "activity in yeast-based bioassays", "result": "not active"}]}
